According to PMC10860701 (ACS Medicinal Chemistry Letters, 2024):

Test system: THP-1 cells
Test: Measurement of cellular NAD+ levels in THP-1 cell cultures
Format: cell-based, human
Conditions: for potency in THP-1 cell cultures relative to NP-A3-B2: full concentration-response, NAD+

Structure (SMILES)	concentration response for FK866 in the presence of compound (THP-1 NAD+, Figure 3B)	potency in THP-1 cell cultures relative to NP-A3-B2
COc1ccc(CN(CCC2(C(C)C)CCOC(C)(C)C2)C(=O)c2cccs2)cc1 (stereo not drawn) [JGB-1-137]	right-shifted	improved potency
COc1ccc(CN(CCC2(C(C)C)CCOC(C)(C)C2)C(=O)c2ccsc2)cc1 (stereo not drawn) [JGB-1-127]	–	improved potency
